Data on one molecule can be found in ChEMBL document CHEMBL1157839, “Inhibitors of prolyl oligopeptidases for the therapy of human diseases: defining diseases and inhibitors” (J Med Chem, 2010).

Amino acid sequences for entries named in this document (tags omitted). A change or cut given only in a name is not applied to a line headed by its entry.
UniProt P28838: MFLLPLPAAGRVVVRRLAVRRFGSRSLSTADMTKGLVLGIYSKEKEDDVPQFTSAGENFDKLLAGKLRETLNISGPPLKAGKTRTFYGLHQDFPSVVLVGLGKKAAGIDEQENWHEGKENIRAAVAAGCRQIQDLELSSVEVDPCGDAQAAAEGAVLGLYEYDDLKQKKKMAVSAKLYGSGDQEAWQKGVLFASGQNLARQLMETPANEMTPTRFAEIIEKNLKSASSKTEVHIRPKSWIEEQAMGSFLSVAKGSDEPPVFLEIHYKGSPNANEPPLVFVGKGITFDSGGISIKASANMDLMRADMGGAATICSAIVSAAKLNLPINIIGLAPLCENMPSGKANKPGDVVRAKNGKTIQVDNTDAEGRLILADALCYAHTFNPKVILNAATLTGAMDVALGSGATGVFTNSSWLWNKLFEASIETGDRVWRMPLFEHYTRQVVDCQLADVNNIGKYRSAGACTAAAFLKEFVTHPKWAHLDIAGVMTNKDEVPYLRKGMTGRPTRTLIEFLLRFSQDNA

Structures are written as SMILES. Some results are limits rather than exact numbers.

The experiment has as its target Cytosol aminopeptidase (Homo sapiens, UniProt P28838). Put plainly: Inhibition of proline iminopeptidase).

For orientation: IC50 means the concentration at which inhibition is half-maximal. Low readings indicate greater potency, high ones weaker potency. Consider `O=C(CO)[C@@H]1CCCN1C(=O)[C@@H]1CCCN1C(=O)NCc1ccccc1`, for which the half-maximal inhibitory concentration (IC50) was over 100 µM.
